A short description of the series: Compatibility of nanocrystalline silver with excipients. Type of series: physicochemical. To be noted: 10% aqueous solution of excipient, 40° C. overnight.

Hexylene glycol: the “Reaction with nanocrystalline silver” value is reported as “Grey - no discoloration”.

The record behind these values is patent publication US20080014247A1, “METAL-CONTAINING FORMULATIONS AND METHODS OF USE” (Nucryst Pharmaceuticals, priority 2006, published 2008).
